We go through two compounds from patent US9957247B2, “SecA inhibitors and methods of making and using thereof” (Georgia State University Research Foundation, Inc., priority 2012, dated 2018).

Sequences of proteins named here, by UniProt entry; tags and fusion partners are left off. A change or cut given only in a name is not applied to a line headed by its entry. Residues count along the entry.
UniProt Q9LCT3: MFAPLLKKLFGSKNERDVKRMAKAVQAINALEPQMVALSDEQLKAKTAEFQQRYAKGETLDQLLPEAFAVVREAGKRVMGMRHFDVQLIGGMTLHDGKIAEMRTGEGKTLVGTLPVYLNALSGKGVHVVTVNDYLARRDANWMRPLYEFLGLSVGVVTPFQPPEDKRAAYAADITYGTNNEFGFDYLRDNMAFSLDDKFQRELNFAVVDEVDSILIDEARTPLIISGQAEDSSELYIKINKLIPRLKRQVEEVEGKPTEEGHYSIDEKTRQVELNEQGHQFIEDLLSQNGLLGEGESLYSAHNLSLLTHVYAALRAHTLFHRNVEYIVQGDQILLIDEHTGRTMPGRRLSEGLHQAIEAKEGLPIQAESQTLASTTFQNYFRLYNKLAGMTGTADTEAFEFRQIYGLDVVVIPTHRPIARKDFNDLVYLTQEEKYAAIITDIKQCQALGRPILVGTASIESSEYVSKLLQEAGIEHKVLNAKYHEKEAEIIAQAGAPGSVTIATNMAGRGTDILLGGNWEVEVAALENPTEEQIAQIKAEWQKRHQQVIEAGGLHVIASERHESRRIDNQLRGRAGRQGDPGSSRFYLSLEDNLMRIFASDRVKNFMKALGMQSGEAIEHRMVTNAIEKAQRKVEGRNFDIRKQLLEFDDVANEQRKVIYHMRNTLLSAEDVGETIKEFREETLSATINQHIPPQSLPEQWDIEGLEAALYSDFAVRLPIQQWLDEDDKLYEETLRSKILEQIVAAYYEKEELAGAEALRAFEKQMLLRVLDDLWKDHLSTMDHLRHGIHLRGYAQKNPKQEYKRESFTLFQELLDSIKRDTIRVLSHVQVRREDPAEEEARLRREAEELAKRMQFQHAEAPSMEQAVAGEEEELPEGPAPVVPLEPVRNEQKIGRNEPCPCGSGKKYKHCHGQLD
UniProt P10408, 1-610: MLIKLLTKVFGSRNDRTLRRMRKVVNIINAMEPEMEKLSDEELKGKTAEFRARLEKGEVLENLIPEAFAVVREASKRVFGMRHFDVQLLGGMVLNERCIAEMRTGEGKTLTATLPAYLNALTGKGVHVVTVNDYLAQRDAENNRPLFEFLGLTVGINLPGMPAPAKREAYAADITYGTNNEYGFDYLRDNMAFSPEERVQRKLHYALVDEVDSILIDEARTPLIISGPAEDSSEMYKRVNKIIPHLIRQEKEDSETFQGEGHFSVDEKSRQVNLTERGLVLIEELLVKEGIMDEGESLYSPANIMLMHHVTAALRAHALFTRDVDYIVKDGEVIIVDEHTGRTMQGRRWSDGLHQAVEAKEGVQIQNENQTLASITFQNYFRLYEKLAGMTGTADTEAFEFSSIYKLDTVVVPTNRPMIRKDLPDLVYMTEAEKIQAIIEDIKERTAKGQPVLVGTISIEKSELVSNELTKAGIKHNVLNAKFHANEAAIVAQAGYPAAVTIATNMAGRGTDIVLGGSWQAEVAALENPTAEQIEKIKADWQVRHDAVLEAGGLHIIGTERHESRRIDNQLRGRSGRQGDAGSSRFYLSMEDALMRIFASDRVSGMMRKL

pIC50: −log10 of the molar value.

For one experiment, the target named is PaSecA (Pseudomonas aeruginosa, UniProt Q9LCT3). In words: cell-based. Particulars: IC50, Ion Channel activity, Table 1.
A further experiment has as its target EcSecA N68 (Escherichia coli, UniProt P10408). Format: biochemical, E. coli. Particulars: read-out: IC50, EcN68 SecA ATPase (unregulated ATPase).

A word on the pIC50: it is the IC50 on a negative log10 scale, so that one unit is a factor of ten. Compound `CSc1nc(Sc2nnc(-c3cc(C(F)(F)F)cc(C(F)(F)F)c3)[nH]2)cc(Sc2nnc(-c3cc(C(F)(F)F)cc(C(F)(F)F)c3)[nH]2)n1` [SCA-21] had a pIC50 against PaSecA of 5.82. Take “Dinitrofluorescein [DN, reference compound]”: the pIC50 at EcSecA N68 was 4.30.
